As usually defined, the IC50 is the concentration that inhibits the measured activity by half. A higher IC50 goes with weaker potency in that assay.

Amino acid sequences for entries named in this document (tags omitted).
UniProt P31645, whole entry: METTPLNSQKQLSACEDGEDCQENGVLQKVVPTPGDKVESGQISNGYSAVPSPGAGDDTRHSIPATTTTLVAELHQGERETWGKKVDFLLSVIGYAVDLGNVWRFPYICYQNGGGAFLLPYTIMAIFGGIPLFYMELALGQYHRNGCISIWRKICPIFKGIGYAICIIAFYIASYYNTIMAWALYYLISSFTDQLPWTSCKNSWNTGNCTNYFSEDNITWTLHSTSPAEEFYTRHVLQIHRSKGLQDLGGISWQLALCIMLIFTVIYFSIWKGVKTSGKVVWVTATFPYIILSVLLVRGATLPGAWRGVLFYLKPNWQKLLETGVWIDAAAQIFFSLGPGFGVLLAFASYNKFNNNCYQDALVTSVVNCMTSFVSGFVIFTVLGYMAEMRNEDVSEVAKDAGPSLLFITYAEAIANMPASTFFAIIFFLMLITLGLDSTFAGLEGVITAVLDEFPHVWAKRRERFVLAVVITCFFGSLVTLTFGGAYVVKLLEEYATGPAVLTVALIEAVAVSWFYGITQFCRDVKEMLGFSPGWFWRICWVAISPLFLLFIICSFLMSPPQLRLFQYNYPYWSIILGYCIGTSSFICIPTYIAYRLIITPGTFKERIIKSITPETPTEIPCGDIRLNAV

In series [1] the test system is Liver microsomes. Description: Metabolic stability in rat liver microsomes assessed as half life at 40 uM after 60 mins by HPLC in presence of NADPH. The conditions noted are these: 1 h. In kind it is ADME, Microsome.
Series [2] concerns the target Sodium-dependent serotonin transporter (Homo sapiens, UniProt P31645). Format: cell-based, HEK293.

Consider `COc1ccc(F)cc1CCC1CCC(CCN)O1` (configuration not stated), for which the t1/2 in series [1] was found to be 1.772 h. For `COc1ccc(F)c(CCCC2CCC(CCNCCCCCN3N=C(c4ccc(OC)c(OC)c4)[C@H]4CC=CC[C@H]4C3=O)O2)c1` (mixture of isomers), the IC50 in series [2] amounted to 0.194 µM.

The values are drawn from ChEMBL document CHEMBL1152805, “Dual inhibitors of phosphodiesterase-4 and serotonin reuptake” (J Med Chem, 2009).
